# Measurements as given in PubChem BioAssay AID2551 (National Center for Advancing Translational Sciences (NCATS), 2010).
# The chains behind the UniProt entries cited, without tags or fusion partners. Where a name states a change or a piece, a line headed by the entry shows the natural chain unless it says otherwise.
# UniProt P51450: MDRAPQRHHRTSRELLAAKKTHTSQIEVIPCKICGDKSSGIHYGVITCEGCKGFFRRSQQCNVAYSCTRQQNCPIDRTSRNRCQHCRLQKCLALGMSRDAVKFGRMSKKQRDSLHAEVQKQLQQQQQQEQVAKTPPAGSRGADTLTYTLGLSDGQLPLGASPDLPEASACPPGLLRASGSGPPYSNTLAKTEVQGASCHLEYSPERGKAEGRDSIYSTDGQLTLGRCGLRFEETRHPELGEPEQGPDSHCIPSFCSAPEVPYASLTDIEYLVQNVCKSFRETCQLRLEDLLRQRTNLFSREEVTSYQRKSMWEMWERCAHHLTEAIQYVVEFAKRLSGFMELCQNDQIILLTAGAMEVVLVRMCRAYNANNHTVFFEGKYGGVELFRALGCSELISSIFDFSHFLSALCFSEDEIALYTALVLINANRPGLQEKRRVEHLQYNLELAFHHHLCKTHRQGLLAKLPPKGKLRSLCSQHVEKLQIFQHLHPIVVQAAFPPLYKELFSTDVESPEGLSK
# This is a selection; strong and weak results do not stand in their true shares. Records with an inconclusive call do not appear. Active and inactive are the calls of the source. Calls follow the shape of the dose curve; as a rule, active = well fitted inhibition curve with a large enough effect; inconclusive = small, poorly fitted or top-dose-only effect, or effect the other way; inactive = no such curve, though single readings can be large or run the other way.
# Target: Nuclear receptor ROR-gamma (Mus musculus) (UniProt P51450)
# Experiment: qHTS for inhibitors of ROR gamma transcriptional activity; also: nearly all actives have a fitted effect of over 60% in size
# Conditions: Drosophila S2 Gal4-RORgamma UAS-luciferase reporter, 20 h; series mostly up to 53.6 µM; activity change, negative = inhibition: at the top concentration
# % is scaled to controls: 0 for no effect and ±100 for the full control effect; potency is read from the fitted curve at half-maximal effect.
Compound,"activity change, negative = inhibition",Potency
c1nnnn1CCn1cnnn1,inactive: 20.1%,
O=P(Nc1nccs1)(c1ccccc1)c1ccccc1,inactive: 22.4%,
CC(C)C(=O)NC(Sc1ccccc1)C(Cl)(Cl)Cl (centres undefined),inactive: 1.81%,
CN(C(=O)Cc1ccccc1)[C@H]1CC[C@@]2(CCCO2)C[C@@H]1N1CCCC1,inactive: -3.92%,
C[C@H]1OP(=O)(Oc2ccccc2)[C@H](O)[C@H](O)[C@H]1N=[N+]=[N-] (some centres undefined),inactive: -5.57%,
O=P(Nc1nc2ccccc2s1)(c1ccccc1)c1ccccc1,inactive: -31.2%,
CN(C)C1(CNC(=O)c2ccc(Cl)c(S(N)(=O)=O)c2)CCCCC1,inactive: 2.19%,
O=P(Nc1ccccn1)(c1ccc(Br)cc1)c1ccc(Br)cc1,inactive: 21.6%,
O=C(OC1CN2CCC1CC2)c1cccc(Cl)c1 (centres undefined),inactive: -15.3%,
Nc1ccc([As](=O)(O)c2ccc([N+](=O)[O-])cc2)cc1,inactive: 11.1%,
C(Cc1nn[nH]n1)Cc1nn[nH]n1,inactive: -6.79%,
O=[As](O)(c1ccccc1)c1ccc(O)cc1,inactive: -4.09%,
O=[N+]([O-])c1ncn(CCn2cnc([N+](=O)[O-])n2)n1,inactive: -25.2%,
O=[N+]([O-])c1ccc(O)c(/C=N/Nc2ccc([N+](=O)[O-])cc2[N+](=O)[O-])c1,,active: 5.62 µM
CCOC(=O)NC(Sc1ccccc1)C(Cl)(Cl)Cl (centres undefined),inactive: -2.74%,
Cc1ccc(NP(=O)(Oc2cccc(C)c2)Oc2cccc(C)c2)nc1,inactive: 1.74%,
c1ccc(-c2nn[nH]n2)c(-c2nn[nH]n2)c1,inactive: -8.29%,
O=C(NC1CCS(=O)(=O)C1)NP(=S)(Oc1ccccc1)Oc1ccccc1 (centres undefined),inactive: 0.679%,
CCNC(=S)/N=C(\N)N[N+](=O)[O-],inactive: -43.6%,
CN(C)C(=O)Oc1noc2ccccc12,inactive: -19%,
O=c1c2cc([N+](=O)[O-])ccc2[nH]c2c([N+](=O)[O-])cc([N+](=O)[O-])cc12,,active: 1 µM
Cc1ccccc1OP(=O)(Nc1ccccn1)Oc1ccccc1C,inactive: 32.3%,

Compound,"activity change, negative = inhibition",Potency
CCC(=O)N1C2C3N(C(=O)CC)C1C1N(C(=O)CC)C(C(N1C(=O)CC)N3C(=O)CC)N2C(=O)CC,inactive: 18%,
O=C(OC1CN2CCC1CC2)c1ccccc1 (centres undefined),,inactive
COC(=O)c1cc2c(s1)N=C(c1ccccc1)N(C)P2(=O)N1CCOCC1 (centres undefined),inactive: -0.612%,
O=P1(Nc2nc3ccc(Cl)cc3s2)COc2ccccc2O1 (centres undefined),inactive: 2.7%,
CC(=O)Nc1ccc(Oc2c([N+](=O)[O-])cc([N+](=O)[O-])cc2[N+](=O)[O-])cc1,inactive: 30.8%,
CC(=O)Nc1ccc([As](=O)(O)O)c(O)c1,inactive: 0.331%,
C[C@@H]1C=CCP(=O)(Oc2ccccc2)O1 (some centres undefined),inactive: -25.8%,
C[C@H]1OP(=O)(Oc2ccccc2)C[C@@H]2O[C@@H]21 (some centres undefined),inactive: 4.7%,
CC(=O)c1ccc(N2CC2c2ccncc2)cc1 (centres undefined),inactive: 6.58%,
Clc1ccc(Cl)c(NC2=NCC(CBr)S2)c1 (centres undefined),inactive: 15.1%,
CN1CCCC(OC(=O)C(c2ccccc2)c2ccccc2)C1 (centres undefined),inactive: -38.4%,
Cc1ccc(OP(=O)(Nc2nccs2)Oc2ccc(C)cc2)cc1,inactive: -42.1%,
COc1ccccc1OP(=O)(Nc1ccc(C)cn1)Oc1ccccc1OC,inactive: -3.51%,
Cc1ccc(N/C(=N/P(=O)(N2CCOCC2)N2CCOCC2)N2CCOCC2)cc1,inactive: 0.0524%,
NC(=O)c1cc([N+](=O)[O-])cc([N+](=O)[O-])c1N,inactive: -2.62%,
O=C(NC(Sc1ccncn1)C(Cl)(Cl)Cl)c1ccccc1 (centres undefined),,active: 10 µM
Oc1ccccc1CNc1ccccn1,inactive: 5.62%,
CC(C)CC(=O)NC(Sc1ccc(Cl)cc1)C(Cl)(Cl)Cl (centres undefined),inactive: 6.76%,
Nc1cc(N)c2nonc2c1[N+](=O)[O-],inactive: 21.9%,
CN(C(=O)Cc1ccc(Cl)c(Cl)c1)[C@H]1CCCC[C@@H]1N1CCCC1,,inactive
Cc1ccc(NP(=O)(Oc2ccccc2F)Oc2ccccc2F)nc1,inactive: -15.4%,
CCOP(=O)(Nc1ccccc1)OCC,,inactive

Compound,"activity change, negative = inhibition",Potency
Cc1cc(SC(NC(=O)c2ccc(F)cc2)C(Cl)(Cl)Cl)ncn1 (centres undefined),,active: 12.6 µM
O=P(Nc1nc2ccc(Cl)cc2s1)(c1ccccc1)c1ccccc1,,active: 2 µM
O=C(O)c1ccccc1[As](=O)(O)O,inactive: 10.4%,
CC(=O)Nc1ccc([As](=O)(O)O)cc1,inactive: -20%,
Nc1cccc2ccc([As](=O)(O)O)cc12,inactive: 2.97%,
CCN(N=Nc1nonc1N)c1nonc1N,,active: 3.55 µM
O=[N+]([O-])c1cc([N+](=O)[O-])c(CCN2CCOCC2)c([N+](=O)[O-])c1,inactive: -10.1%,
O=C(Nc1cc([As](=O)(O)O)ccc1O)c1ccccc1,inactive: -22.8%,
O=C(O)CNc1ccc([As](=O)(O)O)cc1,inactive: 3.27%,
O=[N+]([O-])c1cccc(NC2=NCC(CBr)S2)c1 (centres undefined),inactive: 1.86%,
O=[N+]([O-])c1ncn(CCn2ncnc2[N+](=O)[O-])n1,inactive: -31.6%,
CCc1nc2c(n1)c1c(non1O)c1c2no[n+]1[O-],,active: 12.6 µM
Cc1ccc(NP(=O)(Oc2ccccc2)Oc2ccccc2)nc1,inactive: 30.4%,
CC(=O)N1C2C3N(C(C)=O)C1C1N(C(C)=O)C(C(N1C(C)=O)N3C(C)=O)N2C(C)=O,inactive: -15.9%,
O=[N+]([O-])c1cccc2n[nH]nc12,inactive: -5.95%,
COc1ccc(C2=NCC(CBr)S2)cc1 (centres undefined),,active: 11.2 µM
CC(=O)C1=CCCC2CCC1N2 (centres undefined),inactive: -13.5%,
CC(C)=N/N=C(\N)N[N+](=O)[O-],inactive: -5.79%,
CCN(/C(=N/P(=O)(N1CCOCC1)N1CCOCC1)N1CCOCC1)c1ccc(OC)cc1,inactive: 12.2%,
Nc1ccc([As](=O)(O)c2ccc(N)cc2)cc1,inactive: -18.8%,
